For 1 compound, αKi results are on record in PMC11157048 (Frontiers in Pharmacology, 2024).

Experiment [1] has as its target human liver microsomes (HLM). Nature of the experiment: Inhibition of aumolertinib metabolism in human liver microsomes (IC50, Ki). It is filed as in vitro ADME. To be noted: Lineweaver-Burk secondary plot. A general note: Liver microsomes are vesicles of endoplasmic reticulum, rich in cytochrome P450 enzymes.
Experiment [2] has as its target rat liver microsomes (RLM). Nature of the experiment: Inhibition of aumolertinib metabolism in rat liver microsomes (screen, IC50, Ki). The settings on record: Lineweaver-Burk secondary plot.

As for `CCCc1nc2c(C)cc(-c3nc4ccccc4n3C)cc2n1Cc1ccc(-c2ccccc2C(=O)O)cc1` [Telmisartan], the αKi in experiment [1] was 45.47 µM; in experiment [2], 7.29 µM.
